Experimental findings from patent US20100137206A1, “NOVEL LIGAND GUIDED BLOCK COPOLYMERS FOR TARGETED DRUG DELIVERY” (priority 2006, published 2010) are described below.

Data set [1] in a line: Average diameter and size distribution of micelles by dynamic light scattering. The data set is classed as physicochemical. To be noted: Empty micelles. On the procedure: Micellization was achieved by dissolving each block copolymer (20 mg) in acetone (0.8 mL) and drop-wise addition (˜1 drop/15 sec) of polymer solution to doubly distilled water (5 mL) under moderate stirring at 25° C., followed by evaporation of acetone under vacuum. Average diameter and size distribution of prepared micelles were estimated by dynamic light scattering (DLS) using Malvern Zetasizer 3000 at a polymer concentration of 4 mg/mL.
Polymeric micelles containing physically loaded DOX were prepared by co-solvent evaporation method. In brief, 10 mg of acetal-PEO-b-PCL, acetal-PEO-b-PCBCL, acetal-PEO-b-PCCL, GRGDS-PEO-b-PCL GRGDS-PEO-b-PBCL or GRGDS-PEO-b-PCCL and 2 mg of free DOX were dissolved in acetone (2 mL) in a glass vial followed by addition of 3.0 equivalent of triethylamine (TEA). This solution was added dropwise to pure water (6 mL) under moderate stirring at 25° C. The micellar solution was left stirring overnight, allowing evaporation of acetone. […] DOX-loaded micellar solution was then dialyzed against a large quantity of water for 8 h using a pre-swollen semi-permeable membrane (Spectra/Pro 6, molecular weight cut-off 3000, SECTRUM, Houston, USA) to remove free DOX. The concentration of loaded DOX was quantified photometrically at 485 nm after redissolving the freeze-dried sample in a DMSO-CHCl3 mixture (1:1, v/v).

Data set [2] in a line: Stability of the micellar solution in water (appreciable aggregation or precipitation). The note with it: Empty micelles.

Take “doxorubicin-conjugated acetal polyethylene oxide)-block-poly(caprolactone) [Acetal-PEO-b-PCL(DOX)]”: in data set [1], the “Average diameter (nm)” value is listed as 90.4 nm and the Polydispersity is on record as 0.34. Moreover, the Stability in data set [2] is listed as >1 month.
